{"source": "patent US7098228B2", "about": "“Indolyl derivatives” (Hoffmann-La Roche Inc., priority 2002, dated 2006)", "target": "T1, PPARα (Homo sapiens, UniProt Q07869)", "T1 construct": "PPARα (aa 167 to 469); expressed in transfected cells; host or cells: BHK21 (ATCC CCL10)", "T1 sequence (Q07869 167-468 limits assumed)": "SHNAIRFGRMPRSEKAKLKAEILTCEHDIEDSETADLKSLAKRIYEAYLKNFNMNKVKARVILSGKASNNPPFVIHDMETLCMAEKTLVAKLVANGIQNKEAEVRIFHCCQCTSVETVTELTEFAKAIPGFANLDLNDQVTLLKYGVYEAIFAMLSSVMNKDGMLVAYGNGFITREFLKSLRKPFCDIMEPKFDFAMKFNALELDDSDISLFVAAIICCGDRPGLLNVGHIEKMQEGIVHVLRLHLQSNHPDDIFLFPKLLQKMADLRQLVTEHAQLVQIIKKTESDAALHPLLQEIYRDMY", "test": "Luciferase transcriptional reporter gene assay, pFA-PPARα-LBD in BHK21 cells", "assay_type": "cell-based"}
{"smiles": "CN(CCOc1ccc(CC2SC(=O)NC2=O)cc1)c1ccccn1", "note": "(stereo not shown) [Rosiglitazone, reference compound]", "values": [{"measurement": "PPARα EC50", "result": "inactive"}]}
